{"source": "patent US9683009B2", "about": "“Bone-selective osteogenic oxysterol-bone targeting agents” (The Regents of the University of California, priority 2013, dated 2017)", "tested_on": "M2-10B4 bone marrow stromal cells", "test": "osteogenic differentiation / ALP enzymatic activity in M2-10B4 bone marrow stromal cells", "assay_type": "cell-based", "conditions": "cyclopamine (Cyc; 5 μM) alone, M2-10B4 cells, ± SD", "experimental": "Osteogenic differentiation was assessed by the induction of alkaline phosphatase (ALP) enzymatic activity, as well as induced expression of osteogenic differentiation marker genes ALP, bone sialoprotein (BSP), and osterix (OSX)."}
{"molecule": "CC1=C2C[C@H]3[C@@H](CC=C4C[C@@H](O)CC[C@@]43C)[C@@H]2CC[C@]12O[C@@H]1C[C@H](C)CN[C@H]1[C@H]2C", "note": "[Cyc, cyclopamine, reference compound]", "values": [{"measurement": "ALP Activity", "result": "1 ± 1", "unit": "units/mg protein"}]}
